Chains of the proteins cited; added tags and fusions are not shown. Residues count along the entry.
UniProt O42275, 24-633: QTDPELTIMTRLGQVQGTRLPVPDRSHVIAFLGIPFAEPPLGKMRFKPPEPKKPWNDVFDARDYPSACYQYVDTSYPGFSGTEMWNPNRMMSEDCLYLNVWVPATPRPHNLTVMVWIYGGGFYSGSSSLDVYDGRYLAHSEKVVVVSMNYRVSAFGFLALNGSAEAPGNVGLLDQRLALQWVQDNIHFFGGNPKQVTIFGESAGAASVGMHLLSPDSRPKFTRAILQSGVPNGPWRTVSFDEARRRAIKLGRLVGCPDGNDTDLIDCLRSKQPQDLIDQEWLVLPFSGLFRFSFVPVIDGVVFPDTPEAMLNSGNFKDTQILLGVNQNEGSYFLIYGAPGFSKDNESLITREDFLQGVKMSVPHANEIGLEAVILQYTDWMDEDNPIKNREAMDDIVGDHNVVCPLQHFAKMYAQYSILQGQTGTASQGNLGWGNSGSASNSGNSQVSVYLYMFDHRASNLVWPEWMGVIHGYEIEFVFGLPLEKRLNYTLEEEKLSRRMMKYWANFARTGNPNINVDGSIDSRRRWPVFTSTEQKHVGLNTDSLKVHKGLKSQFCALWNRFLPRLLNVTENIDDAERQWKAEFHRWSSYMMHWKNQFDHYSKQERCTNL
UniProt P06276, 29-602: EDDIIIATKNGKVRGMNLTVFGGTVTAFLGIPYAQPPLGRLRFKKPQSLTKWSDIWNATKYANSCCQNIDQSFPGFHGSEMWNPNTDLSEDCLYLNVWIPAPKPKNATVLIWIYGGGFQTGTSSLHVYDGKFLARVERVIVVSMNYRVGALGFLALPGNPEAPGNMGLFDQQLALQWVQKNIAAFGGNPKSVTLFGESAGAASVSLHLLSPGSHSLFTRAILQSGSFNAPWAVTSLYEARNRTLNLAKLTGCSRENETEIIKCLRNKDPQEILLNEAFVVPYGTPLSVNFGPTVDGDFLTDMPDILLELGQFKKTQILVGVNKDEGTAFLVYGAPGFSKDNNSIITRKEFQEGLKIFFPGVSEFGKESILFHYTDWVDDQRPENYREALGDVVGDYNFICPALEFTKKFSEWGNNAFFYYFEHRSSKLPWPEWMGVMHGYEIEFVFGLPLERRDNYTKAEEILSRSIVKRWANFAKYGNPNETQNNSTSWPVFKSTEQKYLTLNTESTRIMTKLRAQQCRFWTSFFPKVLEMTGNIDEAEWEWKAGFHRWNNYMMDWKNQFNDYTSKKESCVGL

According to article PMC8386747, “Structure–activity relationship, in vitro and in vivo evaluation of novel dienyl sulphonyl fluorides as selective BuChE inhibitors for the treatment of Alzheimer's disease” (Journal of Enzyme Inhibition and Medicinal Chemistry, 2021):

Tests used:
AChE from electric eel = biological target: T1, AChE from electric eel (Electrophorus electricus, UniProt O42275); assay: EeAChE inhibition assay (Ellman's method); assay type: biochemical; settings: na = no inhibitory activity at 20 µM
T1 construct: assays were performed on AChE from electric eel (C3389-500UN; Sigma); purchased Sigma C3389-500UN

[1] = biological target: T2, BuChE from human serum (hBuChE) (Homo sapiens, UniProt P06276); assay: hBuChE inhibition assay (Ellman's assay); assay type: biochemical; settings: mean ± SEM
T2 construct: BuChE from human serum (hBuChE); purchased Sigma B4186; host or cells: human serum

Structure (SMILES)	AChE % inhibition at 20 µM (AChE from electric eel) [%]	IC50 [1] [nM]
Cc1ccc(/C=C/C=C(\Cl)S(=O)(=O)F)cc1 [Compound B3]	20.6 ± 0.8	–
CCN(C)C(=O)Oc1cccc([C@H](C)N(C)C)c1 [Rivastigmine, rivastigmine, reference compound]	–	2950 ± 460
